Assay results taken from US9695132B2, “Heteroaryl compounds and uses thereof” (Celgene CAR LLC, priority 2013, dated 2017).

Amino acid sequences for entries named in this document (tags omitted). Residues count along the entry.
UniProt P22455, 22-802: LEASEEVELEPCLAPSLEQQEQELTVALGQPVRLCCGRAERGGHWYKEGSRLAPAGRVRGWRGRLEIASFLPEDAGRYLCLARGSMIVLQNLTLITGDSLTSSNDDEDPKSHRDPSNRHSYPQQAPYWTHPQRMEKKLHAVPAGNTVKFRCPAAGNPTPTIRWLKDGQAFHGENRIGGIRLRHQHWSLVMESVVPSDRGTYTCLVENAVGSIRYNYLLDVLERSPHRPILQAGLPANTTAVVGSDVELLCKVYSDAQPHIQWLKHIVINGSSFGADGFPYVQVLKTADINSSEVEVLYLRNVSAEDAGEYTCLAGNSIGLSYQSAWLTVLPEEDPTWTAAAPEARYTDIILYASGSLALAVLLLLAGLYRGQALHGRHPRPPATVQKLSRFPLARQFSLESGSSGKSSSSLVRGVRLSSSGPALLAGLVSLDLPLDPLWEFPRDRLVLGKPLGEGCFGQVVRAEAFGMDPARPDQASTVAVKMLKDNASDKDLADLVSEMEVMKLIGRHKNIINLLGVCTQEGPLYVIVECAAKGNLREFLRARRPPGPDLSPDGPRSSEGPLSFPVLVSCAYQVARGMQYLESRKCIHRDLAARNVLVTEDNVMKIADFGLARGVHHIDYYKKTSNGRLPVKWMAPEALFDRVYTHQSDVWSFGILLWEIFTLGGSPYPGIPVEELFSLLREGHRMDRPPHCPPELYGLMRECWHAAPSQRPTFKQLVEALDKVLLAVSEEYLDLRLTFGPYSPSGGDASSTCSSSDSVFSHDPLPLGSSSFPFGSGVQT

Biological target: FGFR4-WT (Homo sapiens (Human), UniProt P22455)
Assay: Omnia assay for potency assessment against FGFR4 enzyme
Assay type: biochemical
Conditions: method a: [FGFR4-WT]=10 nM (Invitrogen), [ATP]=300 uM, [Y10-Sox]=10 uM
Procedure: A 10× stock solution of FGFR4-WT (PR4380C), (from Invitrogen, Carlsbad, Calif.) corresponding to method a in Table 7, was prepared as described below. Alternatively, a 10× stock solution of FGFR4-WT (F01-11G), (SignalChem, Richmond, BC) corresponding to method b in Table 7, was prepared as described below. A solution of 1.4×ATP (AS001A) and 5× Tyr-Sox conjugated peptide substrate (KNZ3101) were prepared in 1× kinase reaction buffer consisting of 20 mM Tris, pH 7.5, 5 mM MgCl2, 1 mM EGTA, 5 mM β-glycerophosphate, 5% glycerol (10× stock, KB002A) and 0.2 mM DTT (DS001A). […] The serially diluted compounds were prepared on a Tecan EVO100. A second addition of 10 μl of Tyr-Sox FGFR4 substrate was added to each well and the kinase reactions were started with the addition of 35 μL of 1.4×ATP. The reactions were monitored every 71 seconds for 240 minutes at λex360/λem485 in a Synergy plate reader from BioTek (Winooski, Vt.).

C=CC(=O)N[C@@H]1CCCC[C@@H]1Nc1ncc2c(n1)N(C)C(=O)N(c1c(Cl)c(OC)cc(OC)c1Cl)C2 [Compound I-94]
IC50: > 1000 nM
